Our source for the T1/2 values is ChEMBL document CHEMBL4818991, “Recent Advances in β2-Agonists for Treatment of Chronic Respiratory Diseases and Heart Failure” (J Med Chem, 2020).

The species entered for the assay is Cavia porcellus. Put plainly: Inhibition of acetylcholine-induced bronchoconstriction in guinea pig assessed as duration of action by measuring half life. The assay is classed as functional.

Take `O=c1ccc2c([C@@H](O)CNCCCCCCOCC(F)(F)c3ccccc3)ccc(O)c2[nH]1` [ABEDITEROL]: the T1/2 was determined as 36 h.
